# Patent publication US4328231A, “Method of treating psoriasis” (Richter Gedeon Vegyeszeti Gyar Rt., priority 1979, dated 1982)
# System: phosphodiesterase
# Assay: Inhibition of phosphodiesterase isolated from rat brain tissue (radioisotopic technique, tritium-labelled c-AMP)
# Format: biochemical
# Details: 20 minutes incubation, % of control
# Experimental: Our model experiments were carried out by means of phosphodiesterase isolated from animal tissues. More particularly, the enzyme was isolated from the brain tissue of rats following the method of J. Schroder and H. V. Richenberg [Biochem. Biophys. Acta 302, 50 (1973)], whereupon the isolated phosphodiesterase was purified by the method of J. G. Hardman and E. W. Sutherland [J. Biol. Chem. 240, 3704 (1965)]. Finally, the activity of the purified enzyme was measured by the radioisotopic technique of G. Poch, in the presence of an excess amount of tritium-labelled c-AMP, in an incubator, initially without the inhibiting system and thereafter in the presence of a compound of the formula (I) as an inhibitor. The enzyme activity was determined after an incubation time of 20 minutes [N. S. Arch. Pharmacol. 268, 272 (1971)]. From the salts of the test compounds of the formula (I) aqueous 10^-3 molar stock solutions were prepared, their pH was adjusted to 4 to 5. To the incubated enzyme preparations suitable amounts of the stock solution were added in order to obtain a series of test solutions containing a compound of the formula (I) in a concentration of 10^-5, 5× 10^-5, 10^-4, 5×10^-4 and 10^-3 moles/lit. […] The degree of inhibition (decrease of enzyme activity) was expressed in % of the control (enzyme preparation containing no inhibitor).
smiles,measurement,setting,value
"C[C@]12C=CC(=O)C=C1CC[C@@H]1[C@@H]2[C@@H](O)C[C@@]2(C)[C@H]1CC[C@]2(O)C(=O)COC(=O)CCC(=O)O [Prednisolone-hemi-succinate, reference compound]",Inhibition (%) obtained by 1 × 10^-4 moles/lit. concentrations of the test compounds,1 × 10^-4 moles/lit.,42.4%
same,Inhibition (%) obtained by 1 × 10^-5 moles/lit. concentrations of the test compounds,1 × 10^-5 moles/lit.,9.2%
same,Inhibition (%) obtained by 5 × 10^-5 moles/lit. concentrations of the test compounds,5 × 10^-5 moles/lit.,21.3%
